The values that follow are results of earlier work, collected in patent US11065330B2, “Induction of antigen-specific tolerance by peripheral phagocytosis” (PLS-Design GmbH, priority 2014, dated 2021).

The conditions of the series: 45 mg CMS/kg/day in two divided doses, one to two weeks.

As to choline magnesium trisalicylate [CMS], the “steady state serum salicylate level, mean value” is 213 ± 10 mg/L.
